Sequences of proteins named here, by UniProt entry; tags and fusion partners are left off. Residues count along the entry.
UniProt P00747, 97-580 limits assumed: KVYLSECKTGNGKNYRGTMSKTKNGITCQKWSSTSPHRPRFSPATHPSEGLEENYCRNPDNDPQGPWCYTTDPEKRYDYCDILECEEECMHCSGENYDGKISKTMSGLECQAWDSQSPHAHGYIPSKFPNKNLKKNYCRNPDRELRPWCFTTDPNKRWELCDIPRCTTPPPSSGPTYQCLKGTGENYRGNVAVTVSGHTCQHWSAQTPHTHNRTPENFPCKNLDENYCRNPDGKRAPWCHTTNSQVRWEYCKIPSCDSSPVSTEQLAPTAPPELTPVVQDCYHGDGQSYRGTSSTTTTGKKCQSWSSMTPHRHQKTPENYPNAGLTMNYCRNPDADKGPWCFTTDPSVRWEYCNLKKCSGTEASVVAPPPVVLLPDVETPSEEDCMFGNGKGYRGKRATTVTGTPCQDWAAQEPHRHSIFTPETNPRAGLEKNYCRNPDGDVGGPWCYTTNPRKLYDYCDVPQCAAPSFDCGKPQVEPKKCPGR
UniProt P00747, 581-810 limits assumed: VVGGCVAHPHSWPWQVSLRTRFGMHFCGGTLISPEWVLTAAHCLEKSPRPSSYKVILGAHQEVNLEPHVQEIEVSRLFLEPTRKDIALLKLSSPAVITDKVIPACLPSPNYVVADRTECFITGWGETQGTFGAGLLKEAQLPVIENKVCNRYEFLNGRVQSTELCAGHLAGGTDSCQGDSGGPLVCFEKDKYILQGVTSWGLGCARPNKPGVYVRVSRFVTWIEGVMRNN

In ChEMBL document CHEMBL1126581 (J Med Chem, 1993):

Molecular target: Plasminogen (Homo sapiens, UniProt P00747)
Assay: Inhibitory activity against plasmin
Outline: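 Amidolytic assay at 25 °C in 0.1 M Tris-HCl pH 7.4. Human plasmin (270 ng/mL) with substrate H-D-Val-Leu-Lys-pNA (0.278 mg/mL). p-Nitroaniline release read at 405 nm. Peptide preincubated 5 min. Varying peptide concentrations gave concentration-response curves. IC50 taken as the concentration giving 50% inhibition relative to blank control.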

N=C(N)NCCC[C@@H](C=O)NC(=O)[C@@H]1CCCN1C(=O)[C@H]1Cc2ccccc2CN1
IC50: 370 nM
